Results from US9663476B2, “Glycine transporter-1 inhibitors” (AMGEN INC., priority 2006, dated 2017).
Counter-ions that a name gives are not always drawn.

Biological target: T1, human glycine transporter type 1 (Gly-T1) (Homo sapiens, UniProt P48067)
T1 construct: JAR) cells endogenously expressing human glycine transporter type 1 (Gly-T1); endogenous in cells; host or cells: JAR (human placental choriocarcinoma) cells
T1 sequence (P48067 1-706): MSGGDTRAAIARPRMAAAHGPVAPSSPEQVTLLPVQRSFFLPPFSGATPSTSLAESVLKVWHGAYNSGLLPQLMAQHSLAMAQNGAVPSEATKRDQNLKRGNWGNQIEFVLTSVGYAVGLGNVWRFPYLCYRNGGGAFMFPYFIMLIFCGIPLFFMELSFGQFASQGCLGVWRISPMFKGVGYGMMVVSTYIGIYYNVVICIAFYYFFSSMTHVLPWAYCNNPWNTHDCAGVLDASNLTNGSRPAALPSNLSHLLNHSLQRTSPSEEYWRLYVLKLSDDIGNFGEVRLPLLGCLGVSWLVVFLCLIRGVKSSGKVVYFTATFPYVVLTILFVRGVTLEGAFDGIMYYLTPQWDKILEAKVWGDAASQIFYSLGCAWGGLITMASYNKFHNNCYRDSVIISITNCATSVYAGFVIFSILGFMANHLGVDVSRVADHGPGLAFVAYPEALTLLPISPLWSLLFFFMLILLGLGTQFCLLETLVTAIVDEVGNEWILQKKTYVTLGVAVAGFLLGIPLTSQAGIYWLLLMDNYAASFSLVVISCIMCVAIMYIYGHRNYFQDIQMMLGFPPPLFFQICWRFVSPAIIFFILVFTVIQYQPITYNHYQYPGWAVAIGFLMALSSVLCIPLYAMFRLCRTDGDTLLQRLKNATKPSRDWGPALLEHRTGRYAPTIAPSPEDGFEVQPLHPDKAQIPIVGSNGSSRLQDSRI
Test: Glycine Transporter 1 (GlyT1) uptake assay, [14C] glycine uptake in JAR cells
Type: cell-based
Conditions: approximate IC50; inhibition of [14C] glycine (5 μM) uptake, JAR cells endogenously expressing human Gly-T1
Procedure: This cell-based assay measures the ability of test compounds to inhibit the uptake of glycine by the glycine transporter type 1. Human placental choriocarcinoma (JAR) cells endogenously expressing human glycine transporter type 1 (Gly-T1) were used for this assay. […] Cells were plated at a density of 4×10^4 cells/well and grown at 37° C. in a humidified atmosphere of 5% CO2 for 24 h.
Culture medium was removed from Cytostar plate and JAR cells were incubated with 30 μl of Uptake buffer (120 mM NaCl, 2 mM KCl, 1 mM CaCl2, 1 mM MgCl2, 10 mM Hepes, 5 mM alanine, pH 7.5) with or without compound for 5 min. […] After incubation at room temperature for the desired time usually 1-2 h, sealed 96-well Cytostar plates were counted on a TopCount (Packard).
IC50 curves were generated from the raw data collected from the TopCount and fitted with a four-parameter logistic equation using in-house data analysis tool, Activity Base.

- IC50: 134 nM
Structure (SMILES): O=C(O)CN1CCN(C(c2ccc(Cl)cc2)c2ccc(Cl)cc2)CC1 [Cpd 88, 2-(4-(bis(4-chlorophenyl)methyl)piperazin-1-yl)acetic acid dihydrochloride salt]
